Molecular target: T1, Hsp90β (Homo sapiens, UniProt P08238)
T1 construct: gene HSP90AB1

Protein sequences, listed by entry. Tags and fused reporters are not part of them. Residues count along the entry.
UniProt P08238, 2-724: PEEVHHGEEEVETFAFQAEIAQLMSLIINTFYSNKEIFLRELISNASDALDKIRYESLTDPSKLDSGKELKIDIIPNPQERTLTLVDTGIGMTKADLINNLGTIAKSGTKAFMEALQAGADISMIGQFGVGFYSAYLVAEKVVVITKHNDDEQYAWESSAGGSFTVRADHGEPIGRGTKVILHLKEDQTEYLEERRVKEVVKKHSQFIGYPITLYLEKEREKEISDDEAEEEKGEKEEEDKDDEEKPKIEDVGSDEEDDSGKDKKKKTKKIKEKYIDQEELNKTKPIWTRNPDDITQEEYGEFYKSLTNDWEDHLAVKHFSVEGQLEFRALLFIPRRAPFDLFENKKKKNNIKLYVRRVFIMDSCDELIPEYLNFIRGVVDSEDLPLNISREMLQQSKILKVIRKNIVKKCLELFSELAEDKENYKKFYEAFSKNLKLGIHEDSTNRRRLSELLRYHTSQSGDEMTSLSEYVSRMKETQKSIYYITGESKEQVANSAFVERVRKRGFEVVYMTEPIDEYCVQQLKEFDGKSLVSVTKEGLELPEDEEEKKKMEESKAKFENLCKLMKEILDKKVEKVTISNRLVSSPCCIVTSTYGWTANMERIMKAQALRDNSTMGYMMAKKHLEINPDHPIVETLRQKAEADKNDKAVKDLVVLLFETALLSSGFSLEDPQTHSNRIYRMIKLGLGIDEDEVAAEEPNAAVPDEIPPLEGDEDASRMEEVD

## CC(C)NCCCn1c(Sc2cc3c(cc2I)OCO3)nc2c(N)ncnc21 [PU, PU-H71]
  PU-agarose capture of Flag-Hsp90β from 293-H cell lysate: binding of PU-beads to both Hsp90α and Hsp90β was minimally affected by these mutations

Source: PMC3759666, “Post-translational modification and conformational state of Heat Shock Protein 90 differentially affect binding of chemically diverse small molecule inhibitors” (Oncotarget, 2013)
